Target: recombinant human TPH1 (Swiss-Prot: P17752) (Homo sapiens (Human), UniProt P17752)
Assay: In vitro enzyme activity assay, fluorescence-based, TPH1 inhibition
Settings: read-out: IC50 TPH1 (μM) mean; recombinant human TPH1, 40 μM tryptophan, pH 7.0, mean of sample triplicates

By UniProt entry, the sequences of proteins in these tests, tags left out. Where a name states a change or a piece, a line headed by the entry shows the natural chain unless it says otherwise.
UniProt P17752: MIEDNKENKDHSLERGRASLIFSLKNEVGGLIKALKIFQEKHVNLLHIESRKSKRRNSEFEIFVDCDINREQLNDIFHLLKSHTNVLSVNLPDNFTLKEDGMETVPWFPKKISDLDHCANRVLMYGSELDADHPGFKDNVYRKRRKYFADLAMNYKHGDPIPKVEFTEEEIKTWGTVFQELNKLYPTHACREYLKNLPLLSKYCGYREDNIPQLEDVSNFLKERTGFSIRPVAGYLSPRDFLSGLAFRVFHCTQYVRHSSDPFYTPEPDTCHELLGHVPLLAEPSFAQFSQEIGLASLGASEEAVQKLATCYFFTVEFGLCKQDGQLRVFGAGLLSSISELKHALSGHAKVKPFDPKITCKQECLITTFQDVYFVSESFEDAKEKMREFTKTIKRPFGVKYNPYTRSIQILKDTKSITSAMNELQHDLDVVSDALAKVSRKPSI

Row | SMILES | IC50 [µM]
1 | CCn1c(=O)[nH]c(=O)c2c1nc(Cc1cn3cc(Cl)sc3n1)n2Cc1ccc(NC(C)=O)cc1 [Ex. 28, N-(4-((8-((2-chloroimidazo[2,1-b]thiazol-6-yl)methyl)-3-ethyl-1,2,3,6-tetrahydro-2,6-dioxopurin-7-yl)methyl)phenyl)acetamide] | 0.116
2 | CCn1c(=O)[nH]c(=O)c2c1nc(Cc1cn3cc(Cl)sc3n1)n2Cc1ccc(-n2cncn2)cc1 [Ex. 29, 7-(4-(1H-1,2,4-triazol-1-yl)benzyl)-8-((2-chloroimidazo[2,1-b]thiazol-6-yl)methyl)-3-ethyl-3,7-dihydro-1H-purine-2,6-dione] | 0.419
3 | CCn1c(=O)[nH]c(=O)c2c1nc(Cc1cn3cc(C)sc3n1)n2Cc1ccc(NC(C)=O)cc1 [Ex. 30, N-(4-((3-ethyl-8-((2-methylimidazo[2,1-b]thiazol-6-yl)methyl)-2,6-dioxo-1,2,3,6-tetrahydro-7H-purin-7-yl)methyl)phenyl)acetamide] | 0.056
4 | CCn1c(=O)[nH]c(=O)c2c1nc(Cc1cn3c(n1)CCCC3)n2Cc1ccc(-n2cncn2)cc1 [Ex. 31, 7-(4-(1H-1,2,4-triazol-1-yl)benzyl)-3-ethyl-8-((5,6,7,8-tetrahydroimidazo[1,2-a]pyridin-2-yl)methyl)-3,7-dihydro-1H-purine-2,6-dione] | 0.469
5 | CCn1c(=O)[nH]c(=O)c2c1nc(Cc1cn3cc(C)sc3n1)n2Cc1ccc(N2CCCC2=O)cc1 [Ex. 32, 3-ethyl-8-((2-methylimidazo[2,1-b]thiazol-6-yl)methyl)-7-(4-(2-oxopyrrolidin-1-yl)benzyl)-3,7-dihydro-1H-purine-2,6-dione] | 0.069
6 | CCn1c(=O)[nH]c(=O)c2c1nc(Cc1cn3c(n1)CCCC3)n2Cc1ccc(-n2ccnc2)cc1 [Ex. 33, 7-(4-(1H-imidazol-1-yl)benzyl)-3-ethyl-8-((5,6,7,8-tetrahydroimidazo[1,2-a]pyridin-2-yl)methyl)-3,7-dihydro-1H-purine-2,6-dione] | 0.546
7 | CCn1c(=O)[nH]c(=O)c2c1nc(Cc1cn3cc(Cl)sc3n1)n2Cc1ccc(N2CC(F)(F)C2)cc1 [Ex. 34, 8-((2-chloroimidazo[2,1-b]thiazol-6-yl)methyl)-7-(4-(3,3-difluoroazetidin-1-yl)benzyl)-3-ethyl-3,7-dihydro-1H-purine-2,6-dione] | 0.411
8 | CCn1c(=O)[nH]c(=O)c2c1nc(Cc1cn3c(n1)CCCC3)n2Cc1ccc(NC(C)=O)cc1 [Ex. 35, N-(4-((3-ethyl-2,6-dioxo-8-((5,6,7,8-tetrahydroimidazo[1,2-a]pyridin-2-yl)methyl)-1,2,3,6-tetrahydro-7H-purin-7-yl)methyl)phenyl)acetamide] | 0.286
9 | CCn1c(=O)[nH]c(=O)c2c1nc(Cc1cn3c(n1)CCCC3)n2Cc1ccc(N2CCCC2=O)cc1 [Ex. 36, 3-ethyl-7-(4-(2-oxopyrrolidin-1-yl)benzyl)-8-((5,6,7,8-tetrahydroimidazo[1,2-a]pyridin-2-yl)methyl)-3,7-dihydro-1H-purine-2,6-dione] | 0.247
10 | CCn1c(=O)[nH]c(=O)c2c1nc(Cc1cn3c(n1)CCCC3)n2Cc1ccc(N2CC(F)(F)C2)cc1 [Ex. 37, 7-(4-(3,3-difluoroazetidin-1-yl)benzyl)-3-ethyl-8-((5,6,7,8-tetrahydroimidazo[1,2-a]pyridin-2-yl)methyl)-3,7-dihydro-1H-purine-2,6-dione] | 0.273
11 | CCn1c(=O)[nH]c(=O)c2c1nc(Cc1cn3c(n1)CCCC3)n2Cc1ccc(N2CC(OC)C2)cc1 [Ex. 38, 3-ethyl-7-(4-(3-methoxyazetidin-1-yl)benzyl)-8-((5,6,7,8-tetrahydroimidazo[1,2-a]pyridin-2-yl)methyl)-3,7-dihydro-1H-purine-2,6-dione] | 0.22
12 | CCn1c(=O)[nH]c(=O)c2c1nc(Cc1cn3c(n1)CCCC3)n2Cc1ccc(-c2noc(C)n2)cc1 [Ex. 39, 3-ethyl-7-(4-(5-methyl-1,2,4-oxadiazol-3-yl)benzyl)-8-((5,6,7,8-tetrahydroimidazo[1,2-a]pyridin-2-yl)methyl)-3,7-dihydro-1H-purine-26-dione] | 0.179

From patent US10683309B2, “Xanthine derivatives, their use as a medicament, and pharmaceutical preparations comprising the same” (MAX-DELBRÜCK-CENTRUM FÜR MOLEKULARE MEDIZIN, priority 2016, dated 2020)
